Measured values as given in publication PMC11170759, “Advancing Parkinson’s Disease Diagnostics: The Potential of Arylpyrazolethiazole Derivatives for Imaging α-Synuclein Aggregates” (ACS Omega, 2024).

Biological target: human recombinant α-syn fibrils (Homo sapiens, UniProt P37840)
Test: [3H]MODAG-001 saturation binding assay on α-syn fibrils
Conditions: read-out: Kd of [3H]MODAG-001 on α-syn fibrils, tested as the radiolabelled form

CN(C)c1ccc(-c2cc(-c3ccnc(Br)c3)n[nH]2)cc1
Kd: 4.4 nM
